Legend:
[1] = Selectivity index, ratio of IC50 for mTOR (unknown origin) to the IC50 for PI3Kalpha (unknown origin)
[2] = Selectivity index, ratio of IC50 for PI3Kgamma (unknown origin) to the IC50 for PI3Kalpha (unknown origin)
[3] = Selectivity index, ratio of IC50 for PI3Kdelta (unknown origin) to the IC50 for PI3Kalpha (unknown origin)
[4] = Selectivity index, ratio of IC50 for PI3Kbeta (unknown origin) to the IC50 for PI3Kalpha (unknown origin)

Compound | Ratio IC50 [1] | Ratio IC50 [2] | Ratio IC50 [3] | Ratio IC50 [4]
Nc1nc2cc(-c3ccc4ncc(N5C[C@@H]6OCCO[C@@H]6C5)nc4c3)ccc2o1 | 240 | 80.2 | 44.4 | 180
C[C@H](NC(=O)c1cnc2ccc(-c3ccc4oc(N)nc4c3)cn12)C(N)=O |  | 50.7 | 25 | 178

From ChEMBL document CHEMBL5634096, “Design, synthesis and bioevaluation of PI3Kα-selective inhibitors as potential colorectal cancer drugs” (Eur J Med Chem, 2023)
